## Yeast mating assay 2: variants of the scFv Ab-91

Target peptide (SARS-CoV-2 spike, HR2 region): PDVDLGDISGINAS

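The starting antibody came from a phage panning campaign against this peptide. Variants in AAYL51 differ from the parent at up to three CDR positions; double and triple changes were sampled at random. In AlphaSeq, yeast of one mating type display the scFv and yeast of the other type display the target. The frequency of each diploid, read from paired DNA barcodes, reflects how well the two displayed proteins bind. Scores were corrected for input abundance and mapped to Kd with protein pairs of known affinity run in the same pool. Mating was done three times.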

The variants keep the light chain, the linker and the frameworks of Ab-91 (scFv order VL, a (GGGGS)3 linker, VH).
VL: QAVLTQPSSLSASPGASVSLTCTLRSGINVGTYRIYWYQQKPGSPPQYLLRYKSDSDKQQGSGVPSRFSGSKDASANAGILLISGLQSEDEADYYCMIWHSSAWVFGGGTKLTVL
VH: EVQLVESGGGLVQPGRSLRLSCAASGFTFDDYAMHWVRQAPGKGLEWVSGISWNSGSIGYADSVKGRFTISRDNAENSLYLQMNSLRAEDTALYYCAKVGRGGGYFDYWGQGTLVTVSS

The parent's heavy chain CDRs are GFTFDDYAMH, GISWNSGSIGYADSVK, VGRGGGYFDY; each variant's own CDRs replace them letter for letter. All variants listed here change G104 of the VH, counted from its first residue. Values are log10 of the apparent Kd in nM; lower means stronger binding. The mean shown is taken over the replicates in which the pair was detected. A pair that was not seen in any replicate is written "no signal"; this usually means weak binding, but a binder can also be missed. Three control strains display no target. For library AAYL51, 21% of the pairings with them gave a signal, with a median of 4.54 and one signal in twenty below 3.26, so weak values seen in few replicates may be background. The control count says in how many pairings with the empty strains this scFv gave a signal.

Variant GFTFDDDAMH / GISWNSNSIGYADSVK / VGRGGRYFDY gave no signal (0 of 3 replicates; controls 0 of 9).
Variant NFTFDDYAMH / GISWNSGSIGYADSVK / VGRGNHYFDY gave no signal (0 of 3 replicates; controls 0 of 9).
Variant GFTFDDYAMH / GIIWNSGSIGYADSVK / VGRGGDYFTY gave no signal (0 of 3 replicates; controls 4 of 9).
Variant GFTFDDYAMH / GITWNSGSIGYADSVK / VGRGGQYFDP gave 2.75 (1 of 3 replicates; controls 1 of 9).
Variant GFCFDDYAMH / GISWNSGSIGYEDSVK / VGRGGVYFDY gave 4.77 (1 of 3 replicates; controls 4 of 9).
Variant GGTFDDYAMH / GISWNSFSIGYADSVK / VGRGGMYFDY gave 5.35 (1 of 3 replicates; controls 4 of 9).
Variant GFTFDDYAMH / GISWNSGSTGYADSVE / VGRGGVYFDY gave 2.97 (3 of 3 replicates; controls 7 of 9).
Variant GFTFDDYAMH / GISWNTGSIGYADSVK / VGRGGRYFDH gave 2.50 (3 of 3 replicates; controls 2 of 9).
Variant GFTHDDYSMH / GISWNSGSIGYADSVK / VGRGGWYFDY gave 4.57 (1 of 3 replicates; controls 3 of 9).
Variant GFTFDDYAMH / GISWNKGSIGEADSVK / VGRGGYYFDY gave no signal (0 of 3 replicates; controls 0 of 9).
Variant GFTFDDYAMH / GIQWNSGSIGYADSMK / VGRGGCYFDY gave no signal (0 of 3 replicates; controls 0 of 9).
Variant GFTFDDYAMH / GDSWNSGSIKYADSVK / VGRGGHYFDY gave no signal (0 of 3 replicates; controls 3 of 9).
Variant GFTFDDYAMH / GISWISGSIGYADSFK / VGRGGMYFDY gave no signal (0 of 3 replicates; controls 0 of 9).
Variant IFTFDDYAMH / GISWNSGSIGYADSVK / VGRYGYYFDY gave 5.07 (2 of 3 replicates; controls 2 of 9).
Variant GFTFDDYAMH / GISWNSGSIGYAWSVK / VGRDGTYFDY gave 4.63 (2 of 3 replicates; controls 3 of 9).
Variant GFTFDDYAMH / GISWNSGSHGYADSVH / VGRGGTYFDY gave 4.05 (1 of 3 replicates; controls 1 of 9).
Variant GFTFDDYAMH / GISWNSGSIGYADSVK / VGRGGEYFDW gave 2.33 (3 of 3 replicates; controls 5 of 9).
Variant GFQFDDYAMH / GISWNSGYIGYADSVK / VGRGGEYFDY gave 4.68 (2 of 3 replicates; controls 1 of 9).
Variant GFTFDDYAMH / GISWNSGSIGYANSVK / VGRVGWYFDY gave 4.21 (2 of 3 replicates; controls 4 of 9).
Variant PFTFDDYAMH / GIHWNSGSIGYADSVK / VGRGGFYFDY gave no signal (0 of 3 replicates; controls 0 of 9).
Variant FFTFDDYAMH / GISWNSGSIGYADSHK / VGRGGVYFDY gave 4.89 (1 of 3 replicates; controls 3 of 9).
Variant GFTADDYAMH / GISWNSNSIGYADSVK / VGRGGSYFDY gave 4.34 (1 of 3 replicates; controls 2 of 9).
Variant GFTFDDVAMH / GISWNSGSIGYADSVK / VGRGGMYFDY gave 5.96 (3 of 3 replicates; controls 4 of 9).
Variant GFAFDDYAMH / GISWNEGSIGYADSVK / VGRGGNYFDY gave no signal (0 of 3 replicates; controls 5 of 9).
Variant AITFDDYAMH / GISWNSGSIGYADSVK / VGRGGYYFDY gave no signal (0 of 3 replicates; controls 0 of 9).
Variant GFTFDDYAMH / EISWNSGSIGYADSVK / VGRGGVYFDY gave no signal (0 of 3 replicates; controls 0 of 9).
Variant GFTFDDYAMH / GISWNSGSIGYADSVK / VGCGGVYFRY gave 5.56 (1 of 3 replicates; controls 3 of 9).
Variant WFTFDDYAMH / GISWNSGSIGYAHSVK / VGRGGWYFDY gave no signal (0 of 3 replicates; controls 0 of 9).
Variant GFTFDDYAMH / GISDNFGSIGYADSVK / VGRGGLYFDY gave 4.33 (2 of 3 replicates; controls 4 of 9).
Variant GFTFDDYSMH / GISWNSGSIGYADSVK / VGRGGPYFDY gave 2.59 (3 of 3 replicates; controls 4 of 9).
Variant GFTFDDYAMH / GIAWNDGSIGYADSVK / VGRGGFYFDY gave 2.91 (3 of 3 replicates; controls 1 of 9).
Variant GFTFDDYAMH / GISWNSGSIGYADHVK / VGRGGPYFDY gave no signal (0 of 3 replicates; controls 0 of 9).
Variant GFTFDDYAMH / GISWNSKSIGYHDSVK / VGRGGYYFDY gave 2.54 (3 of 3 replicates; controls 1 of 9).
Variant GFTFDDYAMH / VISWNSGSIGYADSVK / PGRGGDYFDY gave 5.44 (1 of 3 replicates; controls 4 of 9).

For reference, 4 entries of the list once more:

{"CDR-H1": "PFTFDDYAMH", "CDR-H2": "GIHWNSGSIGYADSVK", "CDR-H3": "VGRGGFYFDY", "mean log10 Kd (nM)": "no signal", "detected": "0/3", "control signals": "0/9"}
{"CDR-H1": "GFTFDDYAMH", "CDR-H2": "VISWNSGSIGYADSVK", "CDR-H3": "PGRGGDYFDY", "mean log10 Kd (nM)": "5.44", "detected": "1/3", "control signals": "4/9"}
{"CDR-H1": "GFTFDDYSMH", "CDR-H2": "GISWNSGSIGYADSVK", "CDR-H3": "VGRGGPYFDY", "mean log10 Kd (nM)": "2.59", "detected": "3/3", "control signals": "4/9"}
{"CDR-H1": "GFTFDDYAMH", "CDR-H2": "GISWNSGSHGYADSVH", "CDR-H3": "VGRGGTYFDY", "mean log10 Kd (nM)": "4.05", "detected": "1/3", "control signals": "1/9"}

Parent in this assay: reference entry 1.86, copy in this library 0.88.

The measurements come from Engelhart et al. 2022 (doi:10.1038/s41597-022-01779-4) through the FLAb antibody collection.